# Reference: US11952334B2, “Cocrystals of ubiquinone and compositions comprising them” (CENTER FOR INTELLIGENT RESEARCH IN CRYSTAL ENGINEERING, S.L., priority 2018, dated 2024)
# Assay: Particle size analysis (granulometry) by laser dispersion
# Format: physicochemical
# Conditions: dispersing fluid silicone oil
# Protocol: Particle size can be determined, for example by laser dispersion on a Beckman Coulter LS13320 provided with a MLM (Micro Liquid Module) (measure range: 0.4 to 2000 μm; optic model: Fraunhofer.rdf, PIDS included).
# Particle size analysis (granulometry) was performed by laser dispersion on a Beckman Coulter LS13320 provided with a MLM (Micro Liquid Module) (measure range: 0.4 to 2000 μm; optic model: Fraunhofer.rdf, PIDS included).
# In a beaker about 10 ml of silicone oil and a microspoon of sample were placed. The sample was homogeneized by pipetting it repeatedly with a pasteurized pipette and by subjecting it to ultrasonic treatment (30 KHz; 200 W). The module was cleaned and filled with silicone oil as a dispersing fluid. Before each analysis, an optical alignment of the laser and a measure of the instrument noise was made.
substance,measurement,value
Ubiquinone:resorcinol cocrystal (2:1) [Compound P57-V],D10,2.06 μm
same,D50,10.9 μm
same,D90,32.2 μm
